The list shows a part of the results, in another mix than the full data. Calls of active or inactive are those of the source. Cut-off read from the data, not from the text of the source: active = potentiation above about 50%; inconclusive = mostly about 30% to 49%; inactive = weaker than that.
target: D(2) dopamine receptor (Homo sapiens) (UniProt P14416); assay: Beta-Arrestin HTS for Positive Allosteric Modulators of the Human D2 Dopamine Receptor: Potentiators; conditions: DiscoveRx D2 beta-arrestin cells, luminescence, 90 min; stronger effect = higher value; 100% = 57 uM dopamine signal
Source text: There is great interest in identifying small molecule ligands for G-protein coupled receptors (GPCRs) as nearly 50% of all FDA-approved drugs target these important receptor proteins. […] Amongst the dopamine receptors (DARs), the D2 is arguably one of the most validated drug targets in neurology and psychiatry. For instance, all receptor-based antiparkinsonian drugs primarily work via stimulating the D2 DAR, whereas all FDA-approved antipsychotic agents are antagonists of this receptor. The D2 DAR is also therapeutically targeted in other disorders such as restless legs syndrome, tardive dyskinesia, Tourette's syndrome, and hyperprolactinemia.
To this end, a miniaturized qHTS screen was developed to be screened against the Molecular Libraries Small Molecule Repository (MLSMR). This assay seeks to identify potentiators against the D2 DAR.
NIH Molecular Libraries Probe Production Network [MLPCN]
NIH Chemical Genomics Center [NCGC]
PI Name: David Sibley, National Institutes of Neurological Disorders and Stroke
DiscoveRx D2 cells were thawed from frozen stock and seeded at 2,100 cells/ 3 uL/well media (DiscoveRx Plating Reagent 2) with MultiDrop Combi dispenser (Thermo Scientific, Logan, UT) onto white tissue culture treated 1536-well Aurora plates (Brooks Automation, Chelmsford, MA) and allowed to attach overnight at 37 deg C, 5% CO2. Next, 23 nL/well of compound solutions in DMSO were added with a pintool transfer (Kalypsis, San Diego, CA). As the positive control, 1 uL/well dopamine (EC100, 57 uM final concentration) diluted in buffer (HBSS + 10 mM HEPES + SMB + 0.1 %Tween-20) was dispensed to 1 column of each plate. EC20 (Dopamine at 50 nM final concentration) was dispensed to the rest of the plate except columns 1 &2 which were used as negative control (EC=0, buffer only), 1 uL/well as well. The cells were stimulated by compounds and dopamine for 90 minutes at 37 deg C, 5% CO2, after which 1.5 uL/well of DiscoveRx detection reagent was added with BioRAPTR FRD dispenser. The detection reagent was prepared by mixing of Galacton Star Substrate, Emerald II solution and PathHunter buffer (supplied by the assay kit) together at 1:5:19 proportion accordingly just prior to dispensing. The plates were incubated at ambient temperature for 1 hour and then the luminescent signal was read on ViewLux plate reader (PerkinElmer, Waltham, MA).

Sequences of proteins named here, by UniProt entry; tags and fusion partners are left off.
UniProt P14416, whole entry: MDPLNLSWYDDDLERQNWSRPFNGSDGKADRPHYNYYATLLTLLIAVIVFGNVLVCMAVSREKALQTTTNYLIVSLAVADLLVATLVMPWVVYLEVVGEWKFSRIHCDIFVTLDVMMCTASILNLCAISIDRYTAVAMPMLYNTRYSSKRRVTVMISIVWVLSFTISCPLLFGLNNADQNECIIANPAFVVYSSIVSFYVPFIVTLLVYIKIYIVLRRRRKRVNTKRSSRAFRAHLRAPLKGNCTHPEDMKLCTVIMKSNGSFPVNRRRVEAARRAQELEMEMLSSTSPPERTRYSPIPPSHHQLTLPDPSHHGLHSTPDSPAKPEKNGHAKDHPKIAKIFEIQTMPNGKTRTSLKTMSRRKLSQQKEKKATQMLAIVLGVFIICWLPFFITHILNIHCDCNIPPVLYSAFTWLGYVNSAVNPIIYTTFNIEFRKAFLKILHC

**Q.** For `c1ccc(-c2nn[nH]n2)c(-c2nn[nH]n2)c1`, which potentiation is on record?
**A.** inactive: -2.38%

**Q.** How did the potentiation turn out when `Cc1ccc(NP(=O)(Oc2cccc(C)c2)Oc2cccc(C)c2)nc1` was run?
**A.** inactive: -4.27%

**Q.** With `O=C(NC1CCS(=O)(=O)C1)NP(=S)(Oc1ccccc1)Oc1ccccc1` (stereo not drawn) as the compound, how does the potentiation read?
**A.** inactive: -1.83%

**Q.** How did the potentiation turn out when `CCNC(=S)/N=C(\N)N[N+](=O)[O-]` was run?
**A.** inactive: -5.63%

**Q.** For `COc1ccc(OP(C)(=O)Nc2ccc(SC(F)(F)F)cc2)cc1` (stereo not drawn), which potentiation is on record?
**A.** inactive: 2.54%

**Q.** Which potentiation does the source give for `O=P1(N(CCCl)CCCl)OCCC2CCCCN21` (stereo not drawn) here?
**A.** inactive: -9.16%

**Q.** Which potentiation does the source give for `CCOC(=O)c1ccc(NP(C)(=O)Oc2ccc(F)cc2)cc1` (stereo not drawn) here?
**A.** inactive: -8.75%

**Q.** For `O=C(OC1CN2CCC1CC2)c1ccccc1` (stereo not drawn), which potentiation is on record?
**A.** inactive: -7.29%

**Q.** Which potentiation does the source give for `CCC(=O)N1C2C3N(C(=O)CC)C1C1N(C(=O)CC)C(C(N1C(=O)CC)N3C(=O)CC)N2C(=O)CC` here?
**A.** inactive: 2.74%

**Q.** Which potentiation does the source give for `CCN(CC)CCCOC(=O)C(O)(c1ccccc1)C1CCCCC1` (stereo not drawn) here?
**A.** inactive: -34.3%

**Q.** For `COC(=O)c1cc2c(s1)N=C(c1ccccc1)N(C)P2(=O)N1CCOCC1` (stereo not drawn), which potentiation is on record?
**A.** inactive: 16%

**Q.** How did the potentiation turn out when `Cc1c([N+](=O)[O-])cc([N+](=O)[O-])c(Br)c1[N+](=O)[O-]` was run?
**A.** inactive: -39.4%

**Q.** `Cc1ccc(OP(=O)(Nc2ccccn2)Oc2ccc(C)cc2)cc1` was tested. Which potentiation did it give?
**A.** inactive: -10.4%

**Q.** For `CC(=O)NC(SC(=S)N(CC(C)C)CC(C)C)C(Cl)(Cl)Cl` (stereo not drawn), which potentiation is on record?
**A.** inactive: 2.69%

**Q.** How did the potentiation turn out when `CC(NC(=O)COC(=O)C(O)(c1ccccc1)c1ccccc1)c1ccccc1` (stereo not drawn) was run?
**A.** inactive: -2.81%

**Q.** How did the potentiation turn out when `Cc1ccccc1OP(=O)(Nc1ccccn1)Oc1ccccc1C` was run?
**A.** inactive: 4.21%

**Q.** With `O=c1c2cc([N+](=O)[O-])ccc2[nH]c2c([N+](=O)[O-])cc([N+](=O)[O-])cc12` as the compound, how does the potentiation read?
**A.** inactive: 11.5%

**Q.** Which potentiation does the source give for `CCCCCOc1ccc(NP(C)(=O)Oc2ccc(Cl)cc2Cl)cc1` (stereo not drawn) here?
**A.** inactive: -11.9%

**Q.** With `CN(C)C(=O)Oc1noc2ccccc12` as the compound, how does the potentiation read?
**A.** inactive: -6.28%

**Q.** Which potentiation does the source give for `CP(=O)(Nc1ccccc1)Oc1ccc(F)cc1` (stereo not drawn) here?
**A.** inactive: -18.2%

**Q.** Which potentiation does the source give for `O=P1(Nc2nc3ccc(Cl)cc3s2)COc2ccccc2O1` (stereo not drawn) here?
**A.** inactive: -6.38%

**Q.** With `CCOc1ccc(C2=NCC(CBr)S2)cc1` (stereo not drawn) as the compound, how does the potentiation read?
**A.** inactive: -4.99%

**Q.** How did the potentiation turn out when `CC(C)(C)C(=O)NC(Sc1ccccc1)C(Cl)(Cl)Cl` (stereo not drawn) was run?
**A.** inactive: -6.2%

**Q.** With `CC(C)c1ccc(OP(C)(=O)Nc2ccc(SC(F)(F)F)cc2)cc1` (stereo not drawn) as the compound, how does the potentiation read?
**A.** inactive: 25%

**Q.** How did the potentiation turn out when `CCc1cc(O)c([N+](=O)[O-])c(C)c1[N+](=O)[O-]` was run?
**A.** inactive: -2.87%

**Q.** For `CP(=O)(Nc1ccccc1F)Oc1ccccc1` (stereo not drawn), which potentiation is on record?
**A.** inactive: -3.97%

**Q.** `O=C(OCCN1CCN(CCOCc2ccccc2)CC1)C(O)(c1ccccc1)c1ccccc1` was tested. Which potentiation did it give?
**A.** inactive: -24.3%

**Q.** For `Cc1ccccc1CN(C)C(=O)COC(=O)C(O)(c1ccccc1)c1ccccc1`, which potentiation is on record?
**A.** inactive: -10.2%

**Q.** How did the potentiation turn out when `C[C@H]1OP(=O)(Oc2ccccc2)C[C@@H]2O[C@@H]21` (stereo partly drawn) was run?
**A.** inactive: -2.65%

**Q.** For `C[C@@H]1C=CCP(=O)(Oc2ccccc2)O1` (stereo partly drawn), which potentiation is on record?
**A.** inactive: -4.07%

**Q.** For `CC(=O)c1ccc(N2CC2c2ccncc2)cc1` (stereo not drawn), which potentiation is on record?
**A.** inactive: -4.37%

**Q.** `N#C/C(=C\c1ccc(N(CCBr)CCBr)cc1)C(N)=O` was tested. Which potentiation did it give?
**A.** inactive: -1.51%

**Q.** For `COC(=O)C1(C)COP(=O)(NCc2ccccc2)OC1` (stereo not drawn), which potentiation is on record?
**A.** inactive: -16.7%

**Q.** How did the potentiation turn out when `CC(=O)Nc1ccc([As](=O)(O)O)c(O)c1` was run?
**A.** inactive: -7.06%

**Q.** Which potentiation does the source give for `CC(=O)Nc1ccc(Oc2c([N+](=O)[O-])cc([N+](=O)[O-])cc2[N+](=O)[O-])cc1` here?
**A.** inactive: -19.8%

**Q.** For `O=P(Nc1nccs1)(c1ccccc1)c1ccccc1`, which potentiation is on record?
**A.** inactive: 13.2%

**Q.** `CC(C)C(=O)NC(Sc1ccccc1)C(Cl)(Cl)Cl` (stereo not drawn) was tested. Which potentiation did it give?
**A.** inactive: 0.149%

**Q.** With `CP(=O)(Nc1ccc(SC(F)(F)F)cc1)Oc1ccc(F)cc1` (stereo not drawn) as the compound, how does the potentiation read?
**A.** inactive: -8.13%

**Q.** Which potentiation does the source give for `c1nnnn1CCn1cnnn1` here?
**A.** inactive: 4.65%

**Q.** `CCOP(C)(=S)SCC(=O)NC(C)(CC)C(=O)O` (stereo not drawn) was tested. Which potentiation did it give?
**A.** inactive: 2.01%

**Q.** Which potentiation does the source give for `CP(=O)(Nc1ccc2c(c1)OCCO2)Oc1ccccc1` (stereo not drawn) here?
**A.** inactive: 12.1%

**Q.** How did the potentiation turn out when `Cc1ccccc1NP(C)(=O)Nc1ccccc1C` was run?
**A.** inactive: -4.53%

**Q.** Which potentiation does the source give for `CN(C)C1(CNC(=O)c2ccc(Cl)c(S(N)(=O)=O)c2)CCCCC1` here?
**A.** inactive: -6.16%

**Q.** For `O=P(Nc1ccccn1)(c1ccc(Br)cc1)c1ccc(Br)cc1`, which potentiation is on record?
**A.** inactive: -5.36%

**Q.** `COc1ccc(OP(C)(=O)Nc2cccc(Br)c2)cc1` (stereo not drawn) was tested. Which potentiation did it give?
**A.** inactive: -3.74%

**Q.** `COc1ccc(N)c([N+](=O)[O-])c1[N+](=O)[O-]` was tested. Which potentiation did it give?
**A.** inactive: -10.2%

**Q.** With `COc1ccc(NP(C)(=O)Oc2ccccc2OC)cc1` (stereo not drawn) as the compound, how does the potentiation read?
**A.** inactive: 2.32%

**Q.** How did the potentiation turn out when `O=P(Nc1nc2ccccc2s1)(c1ccccc1)c1ccccc1` was run?
**A.** inactive: 0.305%
